Apparent affinities of Ab-14 variants for a coronavirus HR2 peptide

Values reported by Li et al. 2023, doi:10.1038/s41467-023-39022-2 (FLAb copy).

The target is the same throughout: PDVDLGDISGINAS, from the HR2 region of SARS-CoV-2 spike.

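The starting antibody came from a phage panning campaign against this peptide. Designed CDR sequences, proposed from the first random library and measured here. Their group label is 14L_GP_HC (GP: Gaussian process model; HC: hill climbing; a sequence that several methods proposed may carry one label only). In AlphaSeq, yeast of one mating type display the scFv and yeast of the other type display the target. Binding brings cells together so that they mate, and sequencing counts the barcode pairs among the diploids. A regression on co-assayed BCL2-family reference pairs converts the normalised counts of each replicate to an apparent Kd. Each pool was mated in six replicate cultures.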

Parent: Ab-14, a human scFv built as VH, the linker GGGGSGGGGSGGGGS, VL. Only the CDRs of the light chain vary.
VH: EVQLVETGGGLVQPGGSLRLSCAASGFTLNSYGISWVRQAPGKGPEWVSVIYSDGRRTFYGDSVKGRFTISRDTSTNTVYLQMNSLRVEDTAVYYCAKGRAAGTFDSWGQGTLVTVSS
VL: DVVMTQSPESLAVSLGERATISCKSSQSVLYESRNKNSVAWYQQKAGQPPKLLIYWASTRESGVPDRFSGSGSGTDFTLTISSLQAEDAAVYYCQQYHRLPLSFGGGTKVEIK

Each variant is given by its three light chain CDRs, as the data file delimits them; those of the parent are KSSQSVLYESRNKNSVA, WASTRES, QQYHRLPLS.
The read-out is the apparent dissociation constant on a log10 scale (nM): the lower, the stronger.
An entry "ND" has no value in the source: the pair was not observed among the diploids in that replicate. This suggests poor binding but is not conclusive.
In the paper, a design with two or fewer of six values counts as a poor binder.
Of ten entries with the parent sequence, four were seen in most replicates (averages 0.34 to 2.37), three in one and three in none, so single entries are noisy.
Background: pairings of all light chain designs with three empty control strains gave a value in 4% of cases (median 2.64, 5th percentile 1.59). Values in that range, when seen in few replicates, are hard to tell from nonspecific mating. Also given: how often the same scFv was detected with the empty control strains.
Values of this round are not directly comparable with the first-round values of the same sequences.

KSDQGNLYESRNKNSVA | GASTRES | QQYHRLPLS: -0.45, -0.62, -0.62, -0.15, -0.46, -0.17 (controls 0 of 18).
KFSQSVLYESRDKNSVA | NAVTRET | QQYHRLPLS: -0.23, -0.20, -0.40, -0.44, -0.38, -0.07 (controls 1 of 18).
KVLQSVLYESRNKNSVA | HASTRED | QQYHQLPLS: 0.14, 0.04, -0.08, 0.06, -0.19, 0.11 (controls 0 of 18).
HLSPSELYESRNKNSVA | NASTRES | QQYHRLPLS: 0.79, 0.77, 0.62, 0.75, 0.48, 0.75 (controls 0 of 18).
KSSISYLYESRNKNSVA | EASTREQ | QQYHRLPLS: 0.44, 0.51, 0.11, 0.29, 0.59, 0.59 (controls 0 of 18).
KQSQSVLYESRNKNSVA | DASTRES | QQYQRLPLS: -0.40, -0.50, -0.57, -0.58, -0.54, -0.39 (controls 1 of 18).
KSSISYLGESRNKNSVA | AASTRES | QQYHRLPLS: -0.04, 0.01, -0.02, -0.37, -0.20, 0.00 (controls 1 of 18).
KSSPSELFESRNKNSVA | DASTRES | QQYHRLPLS: -0.28, -0.37, -0.39, -0.43, -0.46, -0.06 (controls 0 of 18).
FSPQSVLYESRNFNSVA | HASTRED | QQYHRLPLS: 0.60, 0.40, 0.42, 0.36, 0.53, 0.47 (controls 5 of 18).
KFSPSVLYESRTKNSVA | NASTRES | QQYHRLPLS: -0.04, 1.01, 0.88, 0.17, 0.81, 0.59 (controls 0 of 18).
KSSISVLYESLNKNSVA | EASQRES | QQYHRLPLS: -0.19, -0.01, -0.49, -1.05, -0.35, -0.58 (controls 0 of 18).
KFSPSVLYESRTKNSVA | DASTRES | QQYHRLPLS: 0.44, 0.39, 0.31, 0.10, -0.07, 0.37 (controls 1 of 18).
KSSQSFLYESRNKNSVA | GASTRES | QAYHRLTLS: 1.04, 1.08, 1.31, 1.85, 1.55, 1.18 (controls 0 of 18).
KFSQAVLYESRTKNSVA | NASTRES | QQYHRLPLS: 0.41, 0.29, 0.43, 0.27, 0.18, 0.18 (controls 1 of 18).
KSQQSVEYESRNKNNVA | HASTRED | QQYHRLPLS: 1.74, 1.88, 1.79, 1.83, 1.59, 2.46 (controls 1 of 18).
KLSQSVLYESRNKNSVA | DASTRES | GQYHRLPSS: ND, 2.28, 2.54, ND, ND, ND (controls 1 of 18).
KLSQQWLYESRNKNSVA | SASTREE | QQYHRLPLS: -0.29, -0.27, -0.61, -0.54, -0.45, 0.30 (controls 1 of 18).
KSSQSVWMESRNANSVA | DASTRES | QQYHRLPLS: 0.81, 0.79, 0.36, 0.55, 0.50, 0.75 (controls 2 of 18).
KSSMSWLYESRNKNSVA | GASSRES | QQYHRLPLS: 0.39, 0.22, 0.18, 0.12, 0.36, 0.51 (controls 1 of 18).
KASQSVLFQSRNKNSVA | DASTRES | QQYHRLPLS: 0.16, -0.02, 0.21, 0.01, 0.06, -0.04 (controls 0 of 18).
KVSQSVLYESRNKNSVA | DASTRCS | QQYHRLPLE: -0.18, -0.42, -0.40, -0.45, -0.34, 0.16 (controls 0 of 18).
KSGQGVLYESRNKNSVA | GGSTRES | QQYHRLPLS: 0.32, -0.01, 0.24, -0.21, -0.01, 0.26 (controls 1 of 18).
KSLQSVLYESRDKNSVA | HASTRLD | QQYHRLPLS: 0.57, 0.34, 0.37, 0.27, -0.02, 0.44 (controls 0 of 18).
KLDQSTLYESRNQNSVA | WASTRES | QQYHRLPLS: 0.10, 0.27, 0.21, -0.13, -0.11, 0.09 (controls 1 of 18).
KSSQSELQESRNKNSVA | DASTRES | QQYHRLPLS: 0.77, 0.68, 0.72, 0.38, 0.46, 0.67 (controls 0 of 18).
KFSQSVLYESRAKNGVA | EASTRES | QQYHRLPLS: 1.27, 1.23, 0.73, 0.96, 1.26, 1.11 (controls 0 of 18).
HSSPSVEYESRNKNSVA | NASRRES | QQYHRLPLS: 0.29, 0.47, 0.44, 0.40, 0.40, 0.44 (controls 0 of 18).
NFSQSYLYESRNKNSVA | GGNTRES | QQYHRLPLS: -0.18, -0.13, -0.20, -0.26, -0.19, 0.02 (controls 2 of 18).
KSSQSVLFQDRNKNSVA | DASTRES | QQYHRLPLS: 0.06, -0.02, -0.23, -0.34, -0.11, 0.02 (controls 1 of 18).
KILQSVLYESRNKNSVA | HASTRED | QLYHRLPLS: 1.34, 1.11, 0.91, 1.16, 1.24, 1.22 (controls 2 of 18).
KQSQEVLFESRNKNSVA | DASTREQ | QQYHRLPLS: -0.14, -0.14, -0.14, -0.32, -0.33, -0.25 (controls 4 of 18).
RVSQSVLYESRNKNSVA | DASTRES | QQYHRLPLS: -0.31, -0.43, -0.42, -0.63, -0.30, -0.36 (controls 1 of 18).
HSSPSVAYESRNKNSVA | NASTREA | QQYHRLPLS: 0.37, 0.42, 0.23, -0.02, 0.11, 0.13 (controls 1 of 18).
KSSWSGLYESRMKNSVA | EASTRES | QQYHRLPLS: ND, ND, ND, ND, ND, ND (controls 0 of 18).
KCSQSVLYESRNKNSVA | DASTRSS | QQYHRLPLS: 0.59, 0.62, 0.41, 0.50, 0.10, 0.60 (controls 3 of 18).
KASISVLFESRNKNSVA | DASTRSS | QQYHRLPLS: 0.90, 0.52, 0.39, 0.27, 0.22, 0.80 (controls 2 of 18).
KSLQSVLYESRDKNSVA | DASTRED | QQYHRLPLS: 0.87, 0.55, 0.58, 0.14, 0.01, 0.25 (controls 1 of 18).
KLRQSTWYESRNQNSVA | GASTRES | QQYHRLPLS: -0.16, -0.27, -0.18, -0.43, -0.25, -0.38 (controls 0 of 18).
KQSQSVLPEWRNKNSVA | DASTRES | QQYHRLPLS: 0.49, 0.56, 0.12, -0.11, 0.15, -0.01 (controls 0 of 18).
KSDQGELYESRNKNSVA | GASTRES | QQYHRLPLS: -0.13, 0.09, -0.25, -0.38, -0.70, -0.14 (controls 0 of 18).
KSSQSVLYEDRVKNSVA | GASTRES | QQYHRLPLS: 0.90, 0.62, 0.94, 1.20, 0.80, 0.80 (controls 1 of 18).
KLSQSVLMESRNKNSVA | DASLRES | QQYHRLPLS: -0.09, -0.39, -0.44, -0.42, -0.33, -0.26 (controls 1 of 18).
KSSQSFLYESRNFNSVA | EASTRES | QQYHRLPLS: ND, ND, ND, ND, ND, ND (controls 0 of 18).
KQSQSVLYESRNKNSVA | NGSTREV | QQYHRLPLS: 0.12, -0.07, -0.12, -0.11, -0.13, 0.06 (controls 1 of 18).
KSQQSFLYESRNFNSVA | EASTRES | QQYHRLPLS: 0.36, 0.11, 0.14, -0.17, 0.16, 0.46 (controls 1 of 18).
KLRMSTLYESRNKNSVA | WASTREV | QQYHRLPLS: 0.97, 1.41, 0.86, 0.94, 0.57, 0.78 (controls 1 of 18).
KSSQSVLGEDRNKNSVA | DISTRES | QQYHRLPLS: 0.34, 0.23, 0.00, -0.02, 0.11, 0.18 (controls 0 of 18).
KSLQSHLYESRNKNSVA | HASTRED | QQYHRLPLS: 0.60, 0.40, 0.48, 0.25, 0.40, 0.48 (controls 2 of 18).
KSSSSYLYGSRNTNSVA | EASTRES | QQYHRLPLS: 0.25, 0.26, 0.28, 0.47, 0.35, 0.33 (controls 1 of 18).

The first 2 variants above that were never detected:

| CDR-L1 | CDR-L2 | CDR-L3 | log10 Kd, replicates | empty controls |
|---|---|---|---|---|
| KSSWSGLYESRMKNSVA | EASTRES | QQYHRLPLS | ND, ND, ND, ND, ND, ND | 0/18 |
| KSSQSFLYESRNFNSVA | EASTRES | QQYHRLPLS | ND, ND, ND, ND, ND, ND | 0/18 |